This assay deals with T1, monkey GLP-1R (GenBank: JN033215.1) (Macaca fascicularis, UniProt F8V479).
T1 construct: expressed in transfected cells; host or cells: HEK293 (monkey GLP-1R-CRE-Luciferase-HEK293)
The assay can be described thus: monkey GLP-1R-CRE-Luciferase-HEK293 reporter gene assay (antagonism of GLP-1). The format is cell-based. As to conditions: read-out: IC50, antagonism of activation of monkey GLP-1R by GLP-1; 2.5 ng/mL GLP-1, luciferase reporter, overnight. On the procedure:
100 μL of Bright-Glo reagent (Promega Corporation) was added, and the plate was tapped gently to facilitate the mixing of the solution. Chemiluminescence value was read with microplate reader after three minutes. […] The data were analyzed by four-parameter curve fitting with GraphPad Prism 9, and IC50 was calculated.
On the technique in general: A reporter such as luciferase makes a cellular process visible.

Protein sequences, listed by entry. Tags and fused reporters are not part of them. Residues count along the entry.
UniProt F8V479, 24-463: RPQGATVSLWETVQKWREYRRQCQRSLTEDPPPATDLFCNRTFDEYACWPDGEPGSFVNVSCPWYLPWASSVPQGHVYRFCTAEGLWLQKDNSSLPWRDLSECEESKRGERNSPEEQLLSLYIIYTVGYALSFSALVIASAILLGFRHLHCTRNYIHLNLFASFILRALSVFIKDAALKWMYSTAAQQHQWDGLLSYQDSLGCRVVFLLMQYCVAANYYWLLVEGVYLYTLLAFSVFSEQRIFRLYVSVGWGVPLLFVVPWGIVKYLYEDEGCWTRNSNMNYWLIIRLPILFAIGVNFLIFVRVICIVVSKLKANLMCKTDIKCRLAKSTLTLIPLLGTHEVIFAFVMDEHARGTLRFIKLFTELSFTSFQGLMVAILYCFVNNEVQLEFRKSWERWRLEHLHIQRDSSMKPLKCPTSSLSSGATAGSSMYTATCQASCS

As for “exendin 9-39 [Avexitide, reference compound]”, the half-inhibitory concentration (IC50) (in general, the concentration that inhibits the measured activity by half) is 2.12 µM.

Source of the values: US20260042854A1, “ANTI-GLP-1R ANTIBODIES AND USES THEREOF” (SCIWIND BIOSCIENCES USA CO., LTD, priority 2022, published 2026).
